Measurements taken from patent US8690865B2, “Methods and devices for thermal treatment” (Georgia Tech Research Corporation, priority 2004, dated 2014).

Assay: skin permeability measurement in Franz diffusion cell after microheater microablation
Conditions: cadaver epidermis, Franz diffusion cell at 37° C., after microablation by microheater array; added individually to donor compartment
Experimental: Microheater components are tested for use in ablation of stratum corneum and increasing barrier permeability and increased drug transport by assessing transport across cadaver skin by three different molecules. Calcein is a low molecular weight (623 Da) fluorescent molecule used to measure skin permeability by spectrofluorimetric assay and image transport pathways in skin by confocal microscopy. […] Insulin is a polypeptide (6 kDa) that will be used for comparison with in vivo studies involving insulin delivery to diabetic rats. To perform skin permeability measurements, cadaver epidermis is placed in a Franz diffusion cell at 37° C. and an array of microheaters is then positioned on the stratum corneum side and thermally activated to cause microablation. […] Every hour, or more frequently, 1 ml of receptor solution is sampled, and replaced with fresh saline, and fluorescence intensity is measured using calibrated spectrofluorometry and analyzed to determine rates of transdermal delivery.

bovine serum albumin [BSA]
transport across cadaver skin (measured in receptor solution): later measured in the receptor solution
